What was measured:
[1] = test system: plaque as well as non-plaque regions of the aorta; assay: Quantitative autoradiography and Sudan-III-dyeing of the removed aorta of WHHL-rabbits after i.v. application; format: in vivo; details: WHHL-rabbit; for Enrichment (cpm/mm^2) Non-plaque / Enrichment (cpm/mm^2) Plaque: 74 MBq (2 mCi) via ear vein, quantitative autoradiography of aorta; for Enrichment (cpm/mm^2) Non-plaque / Enrichment (cpm/mm^2) Plaque / Enrichment factor Plaque / Non-plaque: 5 h p.i.; for Enrichment (cpm/mm^2) Non-plaque: non-plaque region; for Enrichment (cpm/mm^2) Plaque: plaque region; for Enrichment factor Plaque / Non-plaque: ratio of enrichment in plaque and in non-plaque aorta tissue
Description: 74 MBq (2 mCi) of the respective compound according to the invention was applied via an ear vein in a WHHL-rabbit. 5 h p.i. the rabbit was killed and both a quantitative autoradiography and a Sudan-III-dyeing of the removed aorta were performed. The so-determined accumulation of the respective compounds according to the invention in the different tissues is listed in Table 1.
2 mCi (1 ml) of the analog to b) labelled Asp-Gly-Gly-Cys-Gly-Cys-His-Leu-Asp-Ile-Ile-Trp was applied to a narcotized WHHL-rabbit (Rompun/Ketavet 1:2) via an ear vein. WHHL-rabbits reveal due a missing or defect LDL receptor high LDL levels in blood and therefore show spontaneous arteriosclerotic vascular changes. During the experimental time span of 5 h after application, static photographs with various exposure times and positions were taken with a gamma camera (Elcint SP4 HR). 5 h after application the rabbit was killed and both an autoradiography and a Sudan III dyeing of the aorta were performed. The arteriosclerotic plagues in the region of the aortic arch of the WHHL-rabbits could be depicted with 10 min p.i. in vivo. […] The enrichment factor between the normal and arteriosclerotic wall regions was between 6 and 9, depending on the plaque formation (Sudan III dyeing).

[2] = test system: denuded (arteriosclerotic) right a. carotis; assay: Scintigram and autoradiogram of a New Zealand rabbit with right a. carotis denuded by Fogarty-catheter; details: tissues dissected 5 h after i.v. application
Excerpt: The order of the dissected tissues for each B1 and B2 from left to right: thoracic aorta, right denuded a. carotis and left untreated a. carotis.

| Substance | Enrichment (cpm/mm^2) Non-plaque [1] | Enrichment (cpm/mm^2) Plaque [1] | Enrichment factor Plaque / Non-plaque [1] | accumulation in denuded right a. carotis in comparison to untreated left a. carotis (autoradiogram, Sudan-III-dyeing) [2] | accumulation in denuded right a. carotis in comparison to untreated left a. carotis (autoradiogram, Sudan-III-dyeing) ([2]; listed as Tc-99m-Asp-Gly-Gly-Cys-Gly-Cys-(D-Trp)-Leu-Asp-Ile-Ile-Trp) | autoradiography labelling of the aorta ([1]; 2 mCi i.v., 5 h after application) |
| --- | --- | --- | --- | --- | --- | --- |
| Tc-99m-Complex of N-(mercaptoacetyl)-Gly-Gly-Asp-Phe-(D-Trp)-Leu-Asp-Ile-Ile-Trp [Example 7 c] | 48 cpm/mm^2 | 619 cpm/mm^2 | 13 | – | – | – |
| ^99mTc-Complex of Asp-Gly-Gly-Cys-Gly-Cys-D-Trp-Leu-Asp-Ile-Ile-Trp [Example 2 c] | 431 cpm/mm^2 | 3090 cpm/mm^2 | 7 | higher and more selective accumulation | high and selective accumulation | – |
| Tc-99m-Complex of N-(mercaptoacetyl)-Gly-Gly-Asp-(D-Trp)-Leu-Asp-Ile-Ile-Trp [Example 8 c] | 52 cpm/mm^2 | 513 cpm/mm^2 | 10 | – | – | – |
| Tc-99m-Complex of Asp-Gly-Gly-Cys-Gly-Cys-Phe-(D-Trp)-Leu-Asp-Ile-Ile-Trp [Example 3 c] | 368 cpm/mm^2 | 3930 cpm/mm^2 | 11 | – | – | – |
| ^99mTc-Complex of Asp-Gly-Gly-Cys-Gly-Cys-His-Leu-Asp-Ile-Ile-Trp [Example 1 c] | 89 cpm/mm^2 | 501 cpm/mm^2 | 6 | – | – | labelling of the entire aorta wall as well as the arteriosclerotic plaque |
